# Laboratory results published in patent publication US10294218B2 (VIROSTATICS SRL, priority 2012, dated 2019).
# System: Primary T cells
# Assay: Antiproliferative activity (AP), mitotic index by flow cytometry
# Type: cell-based
# Conditions: T-cell, read-out: AP50 (Inhibitory concentration 50% for antiproliferative capacity)
compound,measurement,value
"COc1ccc(Nc2cc(-c3ccccc3OC)ncn2)cc1CN(C)C [Example 35, N-(3-((Dimethylamino)methyl)-4-methoxyphenyl)-6-(2-methoxyphenyl)pyrimidin-4-amine]",IC50,2200 nM
